ChEMBL document CHEMBL2440021, “Discovery of β2 Adrenergic Receptor Ligands Using Biosensor Fragment Screening of Tagged Wild-Type Receptor” (ACS Med Chem Lett, 2013)

Chains of the proteins cited; added tags and fusions are not shown.
UniProt P08588, whole entry, looked up: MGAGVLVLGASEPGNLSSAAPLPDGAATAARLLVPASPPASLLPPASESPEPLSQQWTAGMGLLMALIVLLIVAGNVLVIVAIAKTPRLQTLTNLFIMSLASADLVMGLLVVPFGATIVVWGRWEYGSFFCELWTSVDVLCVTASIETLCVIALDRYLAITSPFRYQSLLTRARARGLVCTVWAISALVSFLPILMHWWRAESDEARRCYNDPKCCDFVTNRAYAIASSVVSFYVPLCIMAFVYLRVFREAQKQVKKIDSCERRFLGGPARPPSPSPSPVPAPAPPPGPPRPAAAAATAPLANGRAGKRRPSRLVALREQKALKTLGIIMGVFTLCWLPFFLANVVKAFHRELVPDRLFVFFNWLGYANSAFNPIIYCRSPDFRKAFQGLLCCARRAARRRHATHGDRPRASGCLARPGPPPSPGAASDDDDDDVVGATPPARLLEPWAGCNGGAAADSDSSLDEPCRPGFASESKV

Tests used:
[1] = target: T1, Beta-2 adrenergic receptor (Homo sapiens, UniProt P07550); assay: Binding affinity to N-terminal FLAG-tagged C-terminal His-10-tagged human beta2 adrenoceptor expressed in insect Sf9 cells by surface plasmon resonance analysis in presence of dodecyl maltoside
[2] = target: T1, Beta-2 adrenergic receptor; assay: Antagonist activity at human beta2 adrenoceptor containing C-terminus of V2 vasopressin receptor expressed in HEK293 cells assessed as inhibition of isoproterenol-induced beta arrestin recruitment at 10 uM after 15 to 18 hrs by luciferase reporter gene assay; format: functional, cell-based
[3] = target: Beta-1 adrenergic receptor (Homo sapiens) (UniProt P08588); assay: Displacement of [125I]-Cyanopindolol from human beta1 adrenoceptor expressed in HEK293 cells after 90 mins by gamma counting analysis; format: cell-based
[4] = target: T1, Beta-2 adrenergic receptor; settings: Sf9
[5] = target: T1, Beta-2 adrenergic receptor; assay: Displacement of [125I]-Cyanopindolol from human beta2 adrenoceptor expressed in HEK293 cells after 90 mins by gamma counting analysis; format: cell-based
[6] = target: T1, Beta-2 adrenergic receptor; assay: Agonist activity at human beta2 adrenoceptor expressed in HEK293 cells assessed as stimulation of cAMP production after 5 mins by luciferase reporter gene assay; format: functional, cell-based
[7] = target: T1, Beta-2 adrenergic receptor; assay: Agonist activity at human beta2 adrenoceptor containing C-terminus of V2 vasopressin receptor expressed in HEK293 cells assessed as stimulation of beta arrestin recruitment after 15 to 18 hrs by luciferase reporter gene assay; format: functional, cell-based
[8] = target: T1, Beta-2 adrenergic receptor; assay: Antagonist activity at human beta2 adrenoceptor expressed in HEK293 cells assessed as inhibition of isoproterenol-induced cAMP production at 10 uM after 5 mins by luciferase reporter gene assay; format: functional, cell-based

Q: How did the Activity [1] turn out when Cc1cc(N2CCNCC2)c2ccccc2n1 was run?
A: Active

Q: And the inhibition [2]?
A: Active

Q: What about the Kic [3] of the same molecule?
A: 963 nM

Q: And the Ka [4]?
A: 1.16 ×10⁶ /M/s

Q: What about the Kic [5] of the same molecule?
A: 343 nM

Q: What about the Activity [6] of the same molecule?
A: inactive

Q: And the Activity [7]?
A: inactive

Q: What about the inhibition [8] of the same molecule?
A: Active

The source made the active and inactive calls. No cut-off for these calls is given here.
